This note sets out measurements from PubChem BioAssay AID2544 (Sanford-Burnham Center for Chemical Genomics, 2010).

Amino acid sequences for entries named in this document (tags omitted).
UniProt P09923, whole entry: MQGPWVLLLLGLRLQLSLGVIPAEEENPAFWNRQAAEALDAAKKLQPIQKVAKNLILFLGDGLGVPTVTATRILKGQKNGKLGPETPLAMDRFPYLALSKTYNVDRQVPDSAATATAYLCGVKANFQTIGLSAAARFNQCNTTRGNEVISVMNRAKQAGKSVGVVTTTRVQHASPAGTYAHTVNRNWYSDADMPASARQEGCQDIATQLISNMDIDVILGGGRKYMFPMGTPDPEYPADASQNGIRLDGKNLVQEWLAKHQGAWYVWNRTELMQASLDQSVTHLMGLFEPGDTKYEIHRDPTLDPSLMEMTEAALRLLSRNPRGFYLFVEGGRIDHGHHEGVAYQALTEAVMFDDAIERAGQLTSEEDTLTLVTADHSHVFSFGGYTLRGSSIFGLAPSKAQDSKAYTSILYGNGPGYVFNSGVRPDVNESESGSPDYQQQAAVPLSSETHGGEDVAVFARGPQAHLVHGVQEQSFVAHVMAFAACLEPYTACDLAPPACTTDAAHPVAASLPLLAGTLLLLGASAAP

This is a selection; strong and weak results do not stand in their true shares. The source made the active and inactive calls.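 Rule for the calls: active = inhibition reaching a set limit with compound at 10 µM in the primary screen (cut at about 35% in these data); inactive = the rest.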

The target of the assay is Intestinal-type alkaline phosphatase (Homo sapiens) (UniProt P09923). The assay is described as follows: human IAP inhibitors, primary screen, biochemical, luminescence, uHTS (AID 2544).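 Note: plate controls were DMSO wells with enzyme for no effect and no-enzyme buffer wells for full effect.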 To be noted: purified IAP, CDP-Star luminescence, 30 min; at 10 µM; stronger effect = higher value.
Consider `CN(C)C1(CNC(=O)c2cccc(C#N)c2)CCCCC1`, for which the inhibition was inactive: -0.9%.
The value for `c1ccc(CN2CCC(Nc3ccccc3)CC2)cc1` was inactive: -1.5%.
In the case of `CCCN1CCC(Nc2cc(OC)cc(OC)c2)CC1`, the inhibition is inactive: -24.3%.
Turning to `N#Cc1ccc(C(=O)NCC2(N3CCCCC3)CCCCC2)cc1`, the inhibition is inactive: -2.1%.
On to `CC(C)(C)OC(=O)N1CCC(N(C(=O)c2ccccc2)c2ccc(Cl)cc2)CC1`, for which the inhibition was inactive: 11.4%.
As for `CCOC(=O)N1CCC(Nc2ccc(C)cc2)CC1`, the inhibition was inactive: -13.9%.
To `N/C(=N\O)c1c(N)no[n+]1[O-]` belongs inactive: 5%; to `O=C(OC1CN2CCC1CC2)C1c2ccccc2C=Cc2ccccc21` (configuration not stated), inactive: 7.5%; to `CCc1cc(C(=O)NCC2(N3CCCCC3)CCCCC2)sc1C`, inactive: 10.9%.
As to `COc1cc(C(=O)NCC2(N3CCOCC3)CCCCC2)cc(OC)c1C`, the inhibition was inactive: -5.4%.
`O=C(NCC1(N2CCOCC2)CCCCC1)c1cc(Br)ccc1Cl`: the inhibition was inactive: 3.9%.
The value for `COc1ccc(C(=O)NCC2(N3CCOCC3)CCCCC2)cc1OC` was inactive: 6.2%.
Take `COc1cccc(C(=O)N(c2cc(C)cc(C)c2)C2CCN(C(=O)OC(C)(C)C)CC2)c1`: the inhibition was inactive: -20%.
To `COc1cc(OC)cc(C(=O)NCC2(N3CCOCC3)CCCCC2)c1` belongs inactive: -9.1%; to `CCC(CO)(C(=O)OC1CN2CCC1CC2)c1ccccc1` (configuration not stated), inactive: -3.9%; to `CN1CCC(Nc2ccc(Cl)cc2)CC1`, inactive: -5.9%.
On to `CCCOc1ccc(C)cc1CN(CCCl)CCCl`, for which the inhibition was inactive: -6.3%.
To `CCOc1ncccc1C(=O)NCC1(N2CCOCC2)CCCCC1` belongs inactive: 16%; to `CN1CCC(Nc2ccc(F)c(Cl)c2)CC1`, inactive: -19.1%; to `CC(C)(C)OC(=O)N1CCC(Nc2ccccc2)CC1`, inactive: -7.2%.
For `O=C(O)C1(Nc2ccccc2)CCN(Cc2ccccc2)CC1`, the inhibition was inactive: -14.1%.
In the case of `CCCOc1ccc(C(=O)NCC2(N(C)C)CCCCC2)cc1`, the inhibition was inactive: 13.8%.
Take `CCN1CCC(Nc2cccc(F)c2)CC1`: the inhibition is inactive: -3.3%.
In the case of `O=C(NCC1(N2CCCCC2)CCCCC1)c1ccco1`, the inhibition was inactive: 13.6%.
`CN(C)c1ccc(C(=O)NCC2(N3CCCCC3)CCCCC2)cc1`: the inhibition was inactive: -19.7%.
Consider `COc1cc(OC)cc(C(=O)NCC2(N3CCCCC3)CCCCC2)c1`, for which the inhibition was inactive: -10.1%.
For the compound `Cc1ccc(C(=O)NCC2(N3CCCCC3)CCCCC2)o1`, the inhibition was inactive: 2.6%.
For `Fc1ccccc1NC1CCN(Cc2ccccc2)CC1`, the inhibition was inactive: -24%.
With `CCOC(=O)N1CCC(Nc2cccc(C)c2)CC1`, the inhibition is inactive: 2.1%.
Regarding `Cc1ccc(OCC(C)C)c(CN(CCCl)CCCl)c1`, the inhibition was inactive: 1.4%.
As for `CCOc1ccc(C)cc1CN(CCCl)CCCl`, the inhibition was inactive: -17.9%.
The value for `O=C(NCC1(N2CCCCC2)CCCCC1)c1ccc(F)cc1` was inactive: -1.6%.
In the case of `CCCCOc1ccc(C(=O)NCC2(N3CCOCC3)CCCCC2)cc1`, the inhibition is inactive: -15.9%.
The value for `CCOC(=O)N1CCC(Nc2ccc(F)cc2)CC1` was inactive: -10.6%.
Take `COc1ccc(NC2CCN(CCc3ccccc3)CC2)c(OC)c1`: the inhibition was inactive: 8.2%.
Consider `O=C(NCC1(N2CCCCC2)CCCCC1)c1ccc(Cl)nc1`, for which the inhibition was inactive: 8.2%.
As for `Cc1cc(C)cc(N(C(=O)c2ccccc2)C2CCN(C(=O)OC(C)(C)C)CC2)c1`, the inhibition is inactive: 11.2%.
Turning to `O=C(NCC1(N2CCOCC2)CCCCC1)c1cc2ccccc2o1`, the inhibition is inactive: -11.3%.
With `O=C(OC1CN2CCC1CC2)C1c2ccccc2Oc2ccccc21` (configuration not stated), the inhibition is inactive: 5.3%.
As to `N#CC1(Nc2ccccc2)CCN(Cc2ccccc2)CC1`, the inhibition is inactive: 0.1%.
For the compound `O=C(NCC1(N2CCCCC2)CCCCC1)c1ccc(Cl)s1`, the inhibition is inactive: 0.6%.
The value for `COc1ccc(Cl)cc1C(=O)NCC1(N2CCOCC2)CCCCC1` was inactive: 7.4%; that for `CCOC(=O)N1CCC(Nc2ccc(OC)cc2)CC1` was inactive: -12.1%; that for `COc1ccc(C(=O)NCC2(N3CCCCC3)CCCCC2)cc1` was inactive: 3.2%.
To `COc1ccc(C(=O)NCC2(N3CCCCC3)CCCCC2)c(OC)c1OC` belongs inactive: -15%; to `CC(C)(C)OC(=O)N1CCC(N(C(=O)c2ccccc2)c2ccc(F)cc2)CC1`, inactive: 6.2%; to `O=C(NCC1(N2CCCCC2)CCCCC1)c1ccc(=O)[nH]c1`, inactive: 4.1%.
On to `O=C(NCC1(N2CCCCC2)CCCCC1)c1cccs1`, for which the inhibition was inactive: 6.4%.
To `CSc1ccccc1C(=O)NCC1(N2CCCCC2)CCCCC1` belongs inactive: 1.3%.
The value for `O=C(NCC1(N2CCCCC2)CCCCC1)c1cncc(Br)c1` was inactive: 4.8%; that for `CN1CCC(Nc2cccc(F)c2)CC1` was inactive: 3.1%.
Consider `CC(C)c1ccc(NC2CCN(C(=O)OC(C)(C)C)CC2)cc1`, for which the inhibition is inactive: -10.4%.
Take `COc1ccc(CN(CCCl)CCCl)cc1Cl`: the inhibition was inactive: -11.9%.
`CN(C)c1cccc(C(=O)NCC2(N3CCCCC3)CCCCC2)c1`: the inhibition was inactive: -15.1%.
To `COc1cc(OC)c(C(=O)NCC2(N(C)C)CCCCC2)cc1OC` belongs inactive: -9.4%.
With `O=C(NCC1(N2CCOCC2)CCCCC1)c1cc(F)c(F)cc1Cl`, the inhibition was inactive: -5.4%.
As to `O=C(NCC1(N2CCCCC2)CCCCC1)c1cccc(C(F)(F)F)c1`, the inhibition is inactive: -10.1%.
To `O=C(NCC1(N2CCOCC2)CCCCC1)c1cc(=O)[nH]c2ccccc12` belongs inactive: -6.7%.
The value for `COc1cc(C(=O)NCC2(N3CCCCC3)CCCCC2)ccc1OC(F)F` was inactive: 18.3%; that for `COc1ccc(NC2CCN(C(=O)OC(C)(C)C)CC2)cc1` was inactive: 3.5%; that for `CC(C)c1ccc(C(=O)NCC2(N3CCOCC3)CCCCC2)cc1` was inactive: -15.9%.
Take `CN1CCN(CCOC(=O)C(O)(c2ccccc2)c2ccccc2)CC1`: the inhibition was inactive: 11.3%.
For the compound `O=C(NCC1(N2CCCCC2)CCCCC1)c1ccc(OC(F)F)cc1`, the inhibition was inactive: -18.1%.
For `CCN1CCC(Nc2ccc(Cl)cc2)CC1`, the inhibition was inactive: 18.1%.
Turning to `N#CC1(Nc2ccccc2)CCN(CCc2ccccc2)CC1`, the inhibition was inactive: -8.9%.
As for `CSc1ccc(C(=O)NCC2(N3CCOCC3)CCCCC2)cc1`, the inhibition is inactive: -8%.
With `O=C(NCC1(N2CCCCC2)CCCCC1)c1cccc([N+](=O)[O-])c1`, the inhibition is inactive: 13%.

As usually defined, the inhibition is the change of the read-out against control, counted positive when it falls.
